Ab-14 light chain CDR variants: yeast mating affinities

Target peptide (SARS-CoV-2 spike, HR2 region): PDVDLGDISGINAS

Each scFv is VH, a 15-residue (Gly4Ser)3 linker, VL, as in the parent Ab-14, and differs from it in the CDRs of the light chain only.
VH: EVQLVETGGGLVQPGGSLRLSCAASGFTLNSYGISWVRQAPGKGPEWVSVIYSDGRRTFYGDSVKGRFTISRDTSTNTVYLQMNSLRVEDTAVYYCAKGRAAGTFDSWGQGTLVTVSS
VL: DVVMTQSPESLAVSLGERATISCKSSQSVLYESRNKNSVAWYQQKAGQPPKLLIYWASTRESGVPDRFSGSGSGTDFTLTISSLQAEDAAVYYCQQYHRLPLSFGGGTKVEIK

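The starting antibody came from a phage panning campaign against this peptide. The variants were designed computationally from a first round of random CDR variants and then made and measured. Their group label is 14L_GP_Gibbs (GP: Gaussian process model; Gibbs: Gibbs sampling; a sequence that several methods proposed may carry one label only). In AlphaSeq, yeast of one mating type display the scFv and yeast of the other type display the target. The frequency of each diploid, read from paired DNA barcodes, reflects how well the two displayed proteins bind. The ratio of observed to expected reads was calibrated, replicate by replicate, on BCL2-family standards whose Kd was known from biolayer interferometry. The assay was run in six technical replicates.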

Sequences are complete VL domains. Values are log10 of the apparent Kd in nM; lower means stronger binding. "ND" means that the variant was in the library but no mating with the target was seen in that replicate; the authors take this as a sign of poor binding, and no number exists. In the paper, a design with two or fewer of six values counts as a poor binder.

| # | VL | log10 Kd, replicates | signal with controls |
|---|---|---|---|
| 1 | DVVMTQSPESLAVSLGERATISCKFEVSNLYESRNGNSVAWYQQKAGQPPKLLIYNASTRSSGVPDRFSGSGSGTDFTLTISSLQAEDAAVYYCQQYHRLPLSFGGGTKVEIK | 3.20 / 2.04 / 1.05 / 2.07 / 2.47 / 1.74 | 0/18 |
| 2 | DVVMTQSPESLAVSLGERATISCKVSQSWQYESRNKQSVAWYQQKAGQPPKLLIYHASQRESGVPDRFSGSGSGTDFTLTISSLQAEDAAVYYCQQYHRLPLSFGGGTKVEIK | 0.54 / 0.39 / 0.79 / 0.47 / 0.47 / 0.46 | 2/18 (2.74) |
| 3 | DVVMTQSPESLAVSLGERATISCKLSQSVGGESRNKNSVAWYQQKAGQPPKLLIYEASTREQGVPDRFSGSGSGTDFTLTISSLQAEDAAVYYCQQYHRLPLSFGGGTKVEIK | 0.33 / 0.05 / -0.10 / -0.29 / -0.03 / 0.18 | 0/18 |
| 4 | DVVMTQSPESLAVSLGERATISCKFSQSEMYESRNKNPVAWYQQKAGQPPKLLIYNASQRYQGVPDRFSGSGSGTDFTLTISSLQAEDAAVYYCQQYHRLPLSFGGGTKVEIK | 0.31 / 0.25 / 0.37 / 0.25 / 0.20 / 0.26 | 2/18 (2.40) |
| 5 | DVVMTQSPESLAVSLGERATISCKLDQSDLMESRNWNAVAWYQQKAGQPPKLLIYQASTREIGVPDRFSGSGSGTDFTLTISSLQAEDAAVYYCQQYHRLPLSFGGGTKVEIK | 0.02 / -0.07 / -0.10 / -0.24 / -0.04 / -0.11 | 0/18 |
| 6 | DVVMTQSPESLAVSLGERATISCKLMQEMLYESRADNSVAWYQQKAGQPPKLLIYNASQREEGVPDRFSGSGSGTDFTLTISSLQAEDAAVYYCQQYHRLPLSFGGGTKVEIK | -0.54 / 0.04 / 0.39 / 0.43 / -0.36 / 0.23 | 2/18 (1.70) |
| 7 | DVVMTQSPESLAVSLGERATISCILSMSELYGDRMKNSVAWYQQKAGQPPKLLIYNASQREQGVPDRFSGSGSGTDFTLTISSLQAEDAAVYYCQQYHRLPLSFGGGTKVEIK | 0.08 / -0.08 / 0.03 / -0.09 / -0.12 / 0.03 | 0/18 |
| 8 | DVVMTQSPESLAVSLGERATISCKLSQSVLYQMEQKNSVAWYQQKAGQPPKLLIYQASTRMSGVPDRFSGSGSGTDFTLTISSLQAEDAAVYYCQMYHRLPLSFGGGTKVEIK | ND / 1.39 / 1.93 / 1.11 / 2.45 / 2.06 | 1/18 (2.13) |
| 9 | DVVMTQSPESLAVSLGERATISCKLQQSMLYESRWQNSVAWYQQKAGQPPKLLIYQASQREVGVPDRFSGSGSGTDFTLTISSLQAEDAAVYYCQQYHRLPLSFGGGTKVEIK | 0.19 / -0.04 / -0.10 / -0.10 / 0.08 / -0.05 | 2/18 (2.68) |
| 10 | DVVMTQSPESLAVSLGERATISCKVSPSHLYWSRNKNQVAWYQQKAGQPPKLLIYNASTRETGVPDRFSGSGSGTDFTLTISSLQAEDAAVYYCQQYHRLPLSFGGGTKVEIK | 1.09 / 1.63 / 2.01 / 1.78 / 0.84 / 2.60 | 1/18 (0.99) |
| 11 | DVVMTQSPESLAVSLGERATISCKFSQQVLYEDRQKNSVAWYQQKAGQPPKLLIYNASQRFSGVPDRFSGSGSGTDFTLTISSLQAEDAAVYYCQQYHRLPLSFGGGTKVEIK | 0.35 / 0.13 / 0.30 / -0.07 / 0.01 / 0.18 | 0/18 |
| 12 | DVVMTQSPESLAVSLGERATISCVLQQSVCMESRNKNSVAWYQQKAGQPPKLLIYNASKREEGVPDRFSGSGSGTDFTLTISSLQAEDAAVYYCQQYHRLPLSFGGGTKVEIK | 1.26 / 1.70 / 1.42 / 1.46 / 1.17 / 1.38 | 0/18 |
| 13 | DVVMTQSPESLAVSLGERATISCFLEQSTLYESRNKNSVAWYQQKAGQPPKLLIYNASLRCSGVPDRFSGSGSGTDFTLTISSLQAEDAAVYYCQQYHRLPLSFGGGTKVEIK | 0.21 / 0.19 / 0.02 / -0.09 / 0.10 / 0.11 | 4/18 (2.48) |
| 14 | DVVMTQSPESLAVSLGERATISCKLSQSVEQLSRNKNSVAWYQQKAGQPPKLLIYHASQREVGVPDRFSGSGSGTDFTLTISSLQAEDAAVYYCQQYHRLPLSFGGGTKVEIK | -0.07 / -0.14 / -0.15 / -0.23 / -0.20 / 0.10 | 3/18 (2.52) |

A sequence measured in both rounds can read differently, since the two assays cover different ranges. Nonspecific signal, from three strains lacking the peptide, appeared in 4% of pairings of all light chain designs, centred on 2.64 (5% of these signals below 1.59); values are not corrected for it. Also given: how often the same scFv was detected with the empty control strains, with their mean in brackets. Of ten entries with the parent sequence, four were seen in most replicates (averages 0.34 to 2.37), three in one and three in none, so single entries are noisy.

From the AlphaSeq antibody data of Li et al. 2023 (doi:10.1038/s41467-023-39022-2), copy in the FLAb collection.